Publication PMC4833387, “OTSSP167 Abrogates Mitotic Checkpoint through Inhibiting Multiple Mitotic Kinases” (PLoS ONE, 2016)

By UniProt entry, the sequences of proteins in these tests, tags left out. Residues count along the entry.
UniProt Q14680, 1-340: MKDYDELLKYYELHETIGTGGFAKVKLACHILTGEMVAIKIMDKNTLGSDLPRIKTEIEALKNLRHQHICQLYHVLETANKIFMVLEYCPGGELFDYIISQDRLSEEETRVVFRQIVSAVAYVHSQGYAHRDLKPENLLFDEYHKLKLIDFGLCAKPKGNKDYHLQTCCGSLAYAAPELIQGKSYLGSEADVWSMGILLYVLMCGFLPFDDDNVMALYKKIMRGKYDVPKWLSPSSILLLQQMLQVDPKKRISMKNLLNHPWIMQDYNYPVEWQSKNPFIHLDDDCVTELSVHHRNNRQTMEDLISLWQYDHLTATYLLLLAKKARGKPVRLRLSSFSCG

Target: T1, maternal embryonic leucine zipper kinase (MELK) (Homo sapiens, UniProt Q14680)
T1 construct: GST-MELK^(1–340)
Assay: in vitro […] kinase assay with recombinant kinase from E. coli
Format: biochemical

For CC(=O)c1cnc2ccc(-c3cc(Cl)c(O)c(Cl)c3)nc2c1N[C@H]1CC[C@H](CN(C)C)CC1 [OTSSP167], the IC50 was roughly 8 nM.
